Target: cGMP-specific 3',5'-cyclic phosphodiesterase (Homo sapiens, UniProt O76074)

CCN1C(=O)C2C(N=C(N=[N+]=[N-])N2Cc2ccc(O)cc2)N2C1=N[C@@H]1CCC[C@@H]12 (stereo partly specified)
pIC50: 9.21

Source: ChEMBL document CHEMBL1158171, “Bioactivities of a series of phosphodiesterase type 5 (PDE-5) inhibitors as modelled by MIA-QSAR” (Eur J Med Chem, 2008)
